The values that follow come from PubChem BioAssay AID1645857 (Buhrlage Lab, Dana-Farber Cancer Institute and Novartis …, 2021).

Chains of the proteins cited; added tags and fusions are not shown.
UniProt Q96RU2, whole entry: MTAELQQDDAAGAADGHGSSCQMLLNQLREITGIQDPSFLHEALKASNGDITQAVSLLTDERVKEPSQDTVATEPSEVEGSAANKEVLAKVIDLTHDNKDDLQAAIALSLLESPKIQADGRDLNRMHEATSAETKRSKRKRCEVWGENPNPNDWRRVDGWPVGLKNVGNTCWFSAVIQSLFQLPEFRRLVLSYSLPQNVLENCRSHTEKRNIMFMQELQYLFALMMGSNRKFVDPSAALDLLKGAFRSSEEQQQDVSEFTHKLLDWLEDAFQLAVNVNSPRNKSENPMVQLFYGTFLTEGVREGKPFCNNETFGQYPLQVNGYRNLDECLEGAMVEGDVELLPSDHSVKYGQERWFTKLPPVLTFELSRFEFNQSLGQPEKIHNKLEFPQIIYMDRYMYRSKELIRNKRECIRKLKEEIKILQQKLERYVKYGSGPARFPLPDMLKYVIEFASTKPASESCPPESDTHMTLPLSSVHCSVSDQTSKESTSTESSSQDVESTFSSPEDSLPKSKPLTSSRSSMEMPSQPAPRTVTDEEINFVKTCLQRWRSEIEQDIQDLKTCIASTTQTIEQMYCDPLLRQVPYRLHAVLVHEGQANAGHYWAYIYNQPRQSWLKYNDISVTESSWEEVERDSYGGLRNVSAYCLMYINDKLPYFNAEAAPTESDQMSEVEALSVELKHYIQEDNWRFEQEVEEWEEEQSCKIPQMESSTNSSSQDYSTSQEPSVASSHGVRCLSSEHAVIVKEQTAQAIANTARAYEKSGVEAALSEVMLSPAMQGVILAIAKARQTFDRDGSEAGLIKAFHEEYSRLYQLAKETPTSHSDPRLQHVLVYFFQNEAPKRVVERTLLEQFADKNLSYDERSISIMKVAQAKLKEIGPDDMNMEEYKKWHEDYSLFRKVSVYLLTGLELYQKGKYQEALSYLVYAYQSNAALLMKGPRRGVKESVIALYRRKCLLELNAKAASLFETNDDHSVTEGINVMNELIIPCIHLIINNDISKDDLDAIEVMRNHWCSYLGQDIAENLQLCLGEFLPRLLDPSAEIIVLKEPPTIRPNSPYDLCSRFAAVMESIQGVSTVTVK

The entries are a selection whose mix differs from that of the whole data set. Active and inactive are the calls of the source. Cut-off read from the data, not from the text of the source: active = inhibition above about 30%; inactive = the rest.

As a reminder, the inhibition is the change of the read-out against control, counted positive when it falls.

This assay has as its target Ubiquitin carboxyl-terminal hydrolase 28 (Homo sapiens) (UniProt Q96RU2). As to the kind of experiment: blocks human USP28 ubiquitin-rhodamine cleavage (AID 1645857). The following applies: purified USP28, Ub-rhodamine cleavage fluorescence, 30 min; at 25 µM; hits give high values.
As for `O=C(NCC1(N2CCCCC2)CCCCC1)c1ccc(F)cc1`, the inhibition was inactive: -46.8%. For the compound `CC1CN(CCc2ccccc2)CCC1=O` (stereo not drawn), the inhibition is inactive: 4.8%. For `Cc1ccccc1C(=O)NCC1(N2CCOCC2)CCCCC1`, the inhibition is inactive: -7.15%. Turning to `O=C(NCC1(N2CCCCC2)CCCCC1)c1ccc2ncsc2c1`, the inhibition is inactive: -9.55%. Then `Cc1cc(C(=O)NCC2(N3CCOCC3)CCCCC2)c2ccccc2n1`, with inactive: 2%. The result for `O=C(NCC1(N2CCOCC2)CCCCC1)c1ccccc1Cl` reads inactive: -15.2%; that for `N#Cc1ccc(C(=O)NCC2(N3CCCCC3)CCCCC2)cc1`, inactive: -12.1%. As for `CN(C)c1ccc(C(=O)NCC2(N3CCCCC3)CCCCC2)cc1`, the inhibition is inactive: -1.2%.
